The text below walks through data of BindingDB's records for patent US9242969 (Novartis AG, 2016).

Amino acid sequences for entries named in this document (tags omitted). Residues count along the entry.
UniProt P15056, 2-766 V600E limits assumed: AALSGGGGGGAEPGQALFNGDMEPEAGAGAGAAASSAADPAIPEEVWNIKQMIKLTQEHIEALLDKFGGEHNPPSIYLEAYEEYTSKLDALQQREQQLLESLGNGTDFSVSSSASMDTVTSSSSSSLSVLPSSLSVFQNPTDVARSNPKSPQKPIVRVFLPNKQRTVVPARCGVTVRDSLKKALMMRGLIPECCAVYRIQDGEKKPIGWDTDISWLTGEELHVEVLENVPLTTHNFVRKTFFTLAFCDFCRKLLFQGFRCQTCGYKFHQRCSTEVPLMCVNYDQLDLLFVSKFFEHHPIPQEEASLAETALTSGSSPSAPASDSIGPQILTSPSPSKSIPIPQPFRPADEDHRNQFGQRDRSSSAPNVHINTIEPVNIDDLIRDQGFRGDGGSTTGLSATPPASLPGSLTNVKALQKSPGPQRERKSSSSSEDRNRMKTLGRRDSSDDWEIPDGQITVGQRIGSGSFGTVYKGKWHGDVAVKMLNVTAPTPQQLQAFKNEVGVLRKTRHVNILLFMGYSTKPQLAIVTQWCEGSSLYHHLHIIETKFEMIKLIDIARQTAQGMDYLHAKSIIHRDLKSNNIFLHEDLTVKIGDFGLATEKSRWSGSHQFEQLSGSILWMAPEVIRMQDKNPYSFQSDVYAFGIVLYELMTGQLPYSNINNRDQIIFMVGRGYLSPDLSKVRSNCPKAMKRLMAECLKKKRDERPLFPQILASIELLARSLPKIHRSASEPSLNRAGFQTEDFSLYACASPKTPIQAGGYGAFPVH

The target of the assay is Serine/threonine-protein kinase B-raf [V600E] (Homo sapiens, UniProt P15056, V600E).

SMILES strings stand for the structures. pIC50: −log10 of the molar value.

One may read the pIC50 as −log10 of the IC50, conventionally taken in molar units. The low end stands for a large IC50, the high end for a small IC50. As to `Cc1ccc(NC(=O)c2cccc(C3(C#N)CC3)c2Cl)cc1-c1cc(N2CCOCC2)nc(N2CCOCC2)n1` [US9242969, 17], the pIC50 is 8.52.

As for `Cc1ccc(NC(=O)c2cccc(C(F)(F)F)c2)cc1-c1cc(N)nc(N2CCOCC2)c1` [US9242969, 93], the pIC50 is 9.10.
